Legend:
[1] = species: Rattus norvegicus; assay: Inhibition of protein tyrosine phosphatase (PTP) activity in rat liver endosome insulin receptor (IR) dephosphorylation assay at 0.1 mM
[2] = species: Rattus norvegicus; assay: Inhibition of protein tyrosine phosphatase (PTP) activity in rat liver endosome insulin receptor (IR) dephosphorylation assay at 1 mM

O=C(O)c1ccc(I(=O)=O)cc1
inhibition [1]: 36% | inhibition [2]: 69%

From ChEMBL document CHEMBL1131920, “Periodinates: a new class of protein tyrosine phosphatase inhibitors” (Bioorg Med Chem Lett, 1999)
